Measurements published in ChEMBL document CHEMBL2046324, “Synthesis and biological evaluation of 1-arylsulfonyl-5-(N-hydroxyacrylamide)indoles as potent histone deacetylase inhibitors with antitumor activity in vivo” (J Med Chem, 2012).

Tests used:
Histone deacetylase 1 = Histone deacetylase 1 (Homo sapiens, UniProt Q13547); assay: Inhibition of human recombinant HDAC1 after 30 mins by fluorometric assay
Histone deacetylase = assay: Inhibition of HDAC in human HeLa cell nuclear extract after 30 mins by fluorescence microplate reader; type: protein assay

IC50 (Histone deacetylase 1): 12.3 nM
IC50 (Histone deacetylase): 29.5 nM
SMILES: O=C(/C=C/c1ccc2c(ccn2S(=O)(=O)c2ccccc2)c1)NO
